Data from patent publication US20050118564A1, “Methods and compositions for identification and therapeutic use of genes involved in vascular and proliferative diseases” (priority 2002, published 2005).

Experiments:
[1] = system: Human aortic endothelial cells (HAEC); assay: MCP-1 secretion by human aortic endothelial cells exposed to disease stimuli (ELISA); format: cell-based; details: 16 hrs, stimulus alone: 1 ng/ml TNF-α, 1 nM insulin or 100 μg/ml glycated HSA
Experimental: Human aortic endothelial cells (HAEC) were grown with culture medium (Basal medium from Clonetics) containing 0.2% albumin with or without 1 ng/ml TNF-α or 100 μg/ml glycated-human serum albumin (HAS) or 1 nM insulin for 16 hrs. Media were collected and the amounts of […] (DuoSet ELISA development kit—R&D Systems) and MCP-1 (Quantiline Human MCP-1 kit—R&D Systems) were measured. VCAM-1 expression was measured by incubating […] with a polyclonal goat anti-human VCAM-1 antibody (R&D Systems, 1:1000 dilution) followed by development with a rabbit anti-goat IgG-conjugated with horseradish peroxidase (HRP).

[2] = system: Endothelial and smooth muscle cells grown together; assay: IL-6 expression in co-cultures of endothelial and smooth muscle cells; format: cell-based; details: endothelial and smooth muscle cells mixed (1:1, 1:2, 1:4) or layered; TNFα 1 ng/ml
Experimental: Endothelial and smooth muscle cells were grown together in culture media (Basal medium from Clonetics) containing 0.2% albumin. The cells had either nothing added, 1ng/ml TNFα, 1 nM insulin or TNFα and insulin. The media were collected and the amount of IL-6 and MCP-1 was measured. […] This induction was seen both under conditions where endothelial and smooth muscle cells were mixed at different ratios (1:1, 1:2 and 1:4) or when smooth muscle cells were layered over endothelial cells to simulate blood vessel conditions in culture. The induction was more pronounced in the blood vessel-like culture model.

## G-HSA: glycated human serum albumin, disease stimulus, 100 μg/ml
[1]
  increase in MCP-1 secretion: about 60%
[2]
  stimulus-induced IL-6 expression in co-culture versus cells cultured separately: neither interleukin-1 nor glycated albumin/advanced glycation end products (AGE) showed enhanced induction
